The values that follow come from patent US10202345B2, “Substituted azaspiro(4.5)decane derivatives” (priority 2014, dated 2019).

By UniProt entry, the sequences of proteins in these tests, tags left out.
UniProt P35372, whole entry: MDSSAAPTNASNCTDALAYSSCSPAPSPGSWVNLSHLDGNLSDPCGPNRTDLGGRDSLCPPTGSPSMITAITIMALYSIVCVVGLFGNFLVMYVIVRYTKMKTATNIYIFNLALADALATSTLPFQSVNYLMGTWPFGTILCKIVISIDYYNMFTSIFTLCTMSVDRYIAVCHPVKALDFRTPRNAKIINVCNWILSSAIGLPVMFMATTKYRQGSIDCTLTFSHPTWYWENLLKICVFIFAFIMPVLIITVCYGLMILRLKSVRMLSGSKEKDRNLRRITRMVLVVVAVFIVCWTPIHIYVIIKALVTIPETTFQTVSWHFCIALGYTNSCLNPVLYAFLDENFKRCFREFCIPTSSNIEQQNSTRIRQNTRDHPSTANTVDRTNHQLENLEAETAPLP
UniProt P41146, whole entry: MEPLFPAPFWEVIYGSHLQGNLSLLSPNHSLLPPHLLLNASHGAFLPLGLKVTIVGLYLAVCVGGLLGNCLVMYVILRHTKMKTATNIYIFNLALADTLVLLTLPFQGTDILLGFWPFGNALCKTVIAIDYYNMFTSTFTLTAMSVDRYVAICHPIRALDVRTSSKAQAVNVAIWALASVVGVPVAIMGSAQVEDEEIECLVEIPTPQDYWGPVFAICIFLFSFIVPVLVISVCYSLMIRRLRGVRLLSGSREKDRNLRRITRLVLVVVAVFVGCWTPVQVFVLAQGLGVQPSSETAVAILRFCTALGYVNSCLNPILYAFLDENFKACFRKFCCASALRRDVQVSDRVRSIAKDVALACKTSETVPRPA

The target of one assay is human μ opiate receptor (Homo sapiens, UniProt P35372). Put plainly: μ opiate receptor binding assay with [3H]-naloxone (WGA-SPA beads). Particulars: for Ki: read-out: Ki (μ) mean [μm], mean; for % inhibition (μ) [1 μM]: test concentration 1 μM.
The target in a further assay is ORL1 receptor (Homo sapiens, UniProt P41146). Put plainly: ORL1 receptor binding assay with 3H-nociceptin/orphanin FQ (WGA-SPA beads). Particulars: for Ki: read-out: Ki (ORL1) mean, mean; for % inhibition (ORL1) [1 μM]: test concentration 1 μM.

Regarding `Cc1ccc(C2(N(C)C)CCC3(CC2)CC(=O)N(CC2CCCC2)C3)s1` (single isomer, unassigned) [158], at human μ opiate receptor, the inhibitory constant (Ki) stood at 0.54 nM and the “% inhibition (μ) [1 μM]” value turned out to be 100%. For the same compound, on ORL1 receptor, the Ki was 0.56 nM. The “% inhibition (ORL1) [1 μM]” value at ORL1 receptor (1 µM) is on record as 94%.
Regarding `CN(C)C1(c2ccccc2)CCC2(CC1)CC(=O)N(CCC1CCC1)C2` (single isomer, unassigned) [173], the values for the Ki on human μ opiate receptor and at ORL1 receptor were 0.61 nM and 0.32 nM, respectively. Further, the “% inhibition (μ) [1 μM]” value at human μ opiate receptor is given as 97.5%. The “% inhibition (ORL1) [1 μM]” value at ORL1 receptor (1 µM) was determined as 96.5%.
The matching figures for `CN(C)C1(c2ccccc2)CCC2(CC1)CC(=O)N(CCC1CCC1)C2` (single isomer, unassigned) [174]: 1670 nM, 135 nM, 28% and 49.5%.
The matching figures for `CN(C)C1(c2ccccc2)CCC2(CC1)CC(=O)N(CCC1(C#N)CC1)C2` (single isomer, unassigned) [176]: 175 nM, 104 nM, 72% and 63%.
As for `CN(C)C1(c2ccccc2)CCC2(CC1)CC(=O)N(CCC1(C#N)CCC1)C2` (single isomer, unassigned) [178], at human μ opiate receptor, the Ki worked out at 18.5 nM and the “% inhibition (μ) [1 μM]” value is 96.5%. The Ki at ORL1 receptor was determined as 39.5 nM. Besides, the “% inhibition (ORL1) [1 μM]” value on ORL1 receptor (1 µM) is listed as 82.5%.
Turning to `CN(C)C1(c2ccccc2)CCC2(CC1)CC(=O)N(CC1(O)CCC1)C2` (single isomer, unassigned) [179], the Ki on human μ opiate receptor stood at 7.5 nM; at ORL1 receptor, 6.7 nM. The “% inhibition (μ) [1 μM]” value on human μ opiate receptor was 99%. The “% inhibition (ORL1) [1 μM]” value at ORL1 receptor (1 µM) is 93%.
The matching figures for `CN(C)C1(c2ccccc2)CCC2(CC1)CC(=O)N(CC1(O)CCC1)C2` (single isomer, unassigned) [180]: 300 nM, 180 nM, 66.5% and 49.5%.
The corresponding values for `COC(C)(C)CCN1CC2(CCC(c3ccccc3)(N(C)C)CC2)CC1=O` (single isomer, unassigned) [183] are 795 nM, 300 nM, 23.5% and 39.5%.
The corresponding values for `COC1(CCN2CC3(CCC(c4ccccc4)(N(C)C)CC3)CC2=O)CCC1` (single isomer, unassigned) [185] are 255 nM, 104 nM, 60.5% and 49%.
As to `COC1(CCN2CC3(CCC(c4cccs4)(N(C)C)CC3)CC2=O)CCC1` (single isomer, unassigned) [218], the “% inhibition (μ) [1 μM]” value at human μ opiate receptor amounted to 76.5%. The “% inhibition (ORL1) [1 μM]” value at ORL1 receptor (1 µM) came to 50.5%.
`COC(C)(C)CCN1CC2(CCC(c3cccs3)(N(C)C)CC2)CC1=O` (single isomer, unassigned) [219]: at human μ opiate receptor, the Ki was 945 nM and the “% inhibition (μ) [1 μM]” value is 46%. Further, the inhibition constant Ki at ORL1 receptor is 315 nM. In addition, the “% inhibition (ORL1) [1 μM]” value on ORL1 receptor (1 µM) worked out at 36%.
The corresponding values for `COC(C)(C)CCN1CC2(CCC(c3cccs3)(N(C)C)CC2)CC1=O` (single isomer, unassigned) [220] are 0.41 nM, 97%, 1.2 nM and 99%.
Regarding `CN(C)C1(c2cccs2)CCC2(CC1)CC(=O)N(CCC(C)(C)O)C2` (single isomer, unassigned) [221], at human μ opiate receptor, the Ki stood at 4.8 nM and the “% inhibition (μ) [1 μM]” value is 101%. For the same compound, the Ki at ORL1 receptor stood at 2 nM. The “% inhibition (ORL1) [1 μM]” value on ORL1 receptor (1 µM) was 96.5%.
The corresponding values for `CN(C)C1(c2cccs2)CCC2(CC1)CC(=O)N(CCC(C)(C)O)C2` (single isomer, unassigned) [222] are 605 nM, 62%, 265 nM and 46.5%.
The corresponding values for `CN(C)C1(c2ccccc2)CCC2(CC1)CC(=O)N(CCC(C)(C)C#N)C2` (single isomer, unassigned) [230] are 1.3 nM, 98.5%, 3.15 nM and 96.5%.
The corresponding values for `CN(C)C1(c2ccccc2)CCC2(CC1)CC(=O)N(CCC(C)(C)C#N)C2` (single isomer, unassigned) [231] are 58.5 nM, 91.5%, 180 nM and 43%.
Take `CN(C)C1(c2cccs2)CCC2(CC1)CC(=O)N(CCC1COC1)C2` (single isomer, unassigned) [241]: on human μ opiate receptor, the Ki is 8.75 nM and the “% inhibition (μ) [1 μM]” value is 99%. In addition, the Ki at ORL1 receptor stood at 15 nM. Moreover, the “% inhibition (ORL1) [1 μM]” value at ORL1 receptor (1 µM) is 89.5%.
The matching figures for `CN(C)C1(c2cccs2)CCC2(CC1)CC(=O)N(CCC1COC1)C2` (single isomer, unassigned) [242]: 870 nM, 51%, 450 nM and 38.5%.
The matching figures for `CN(C)C1(c2ccccc2)CCC2(CC1)CC(=O)N(CC1COC1)C2` (single isomer, unassigned) [251]: 54 nM, 87%, 21.5 nM and 82%.
The matching figures for `CN(C)C1(c2ccccc2)CCC2(CC1)CC(=O)N(CC1COC1)C2` (single isomer, unassigned) [252]: 14300 nM, 37.5%, 300 nM and 46.5%.
For `CN(C)C1(c2ccccc2)CCC2(CC1)CC(=O)N(CC1CCOC1)C2` (single isomer, unassigned) [260], the Ki amounted to 53.5 nM on human μ opiate receptor and 8.65 nM on ORL1 receptor. Moreover, at human μ opiate receptor, the “% inhibition (μ) [1 μM]” value stood at 93.5%. Also, the “% inhibition (ORL1) [1 μM]” value on ORL1 receptor (1 µM) was determined as 90%.
With `CN(C)C1(c2ccccc2)CCC2(CC1)CC(=O)N(CC1CCOC1)C2` (single isomer, unassigned) [261], on human μ opiate receptor, the Ki is 1400 nM and the “% inhibition (μ) [1 μM]” value is on record as 40%. For the same compound, the inhibition constant Ki on ORL1 receptor amounted to 395 nM. In addition, at ORL1 receptor (1 µM), the “% inhibition (ORL1) [1 μM]” value came out at 42.5%.
The matching figures for `CN(C)C1(c2ccccc2)CCC2(CC1)CC(=O)N(CC1CCOCC1)C2` (single isomer, unassigned) [269]: 10.1 nM, 93%, 12.5 nM and 89.5%.
The corresponding values for `CN(C)C1(c2ccccc2)CCC2(CC1)CC(=O)N(CC1CCOCC1)C2` (single isomer, unassigned) [270] are 1160 nM, 34%, 310 nM and 33.5%.
With `CCCCC1(N(C)C)CCC2(CC1)CC(=O)N(CCC1CCOC1)C2` (single isomer, unassigned) [399], at human μ opiate receptor, the Ki worked out at 5770 nM and the “% inhibition (μ) [1 μM]” value is listed as 20%. Also, at ORL1 receptor (1 µM), the “% inhibition (ORL1) [1 μM]” value came out at 0%.
For `CCCCC1(N(C)C)CCC2(CC1)CC(=O)N(CCC1CCOC1)C2` (single isomer, unassigned) [400], at human μ opiate receptor, the Ki stood at 51.5 nM and the “% inhibition (μ) [1 μM]” value was 86%. For the same compound, the Ki at ORL1 receptor worked out at 825 nM. On ORL1 receptor (1 µM), the “% inhibition (ORL1) [1 μM]” value is 34%.
Consider `CCCCC1(N(C)C)CCC2(CC1)CC(=O)N(CCC1(C#N)CC1)C2` (single isomer, unassigned) [401], for which, at human μ opiate receptor, the Ki came out at 2760 nM and the “% inhibition (μ) [1 μM]” value came out at 23%. Further, on ORL1 receptor (1 µM), the “% inhibition (ORL1) [1 μM]” value is reported as 0%.
In the case of `CCCCC1(N(C)C)CCC2(CC1)CC(=O)N(CCC1(C#N)CC1)C2` (single isomer, unassigned) [402], the figures for the Ki on human μ opiate receptor and at ORL1 receptor were 38 nM and 510 nM, respectively. For the same compound, the “% inhibition (μ) [1 μM]” value on human μ opiate receptor is on record as 89%. Further, the “% inhibition (ORL1) [1 μM]” value at ORL1 receptor (1 µM) was 34.5%.
Consider `CCCCC1(N(C)C)CCC2(CC1)CC(=O)N(CCC1(C#N)CCC1)C2` (single isomer, unassigned) [403], for which, on human μ opiate receptor, the Ki came to 4120 nM and the “% inhibition (μ) [1 μM]” value is reported as 23.5%. Also, the “% inhibition (ORL1) [1 μM]” value at ORL1 receptor (1 µM) was found to be 6.5%.
For the compound `CCCCC1(N(C)C)CCC2(CC1)CC(=O)N(CCC1(C#N)CCC1)C2` (single isomer, unassigned) [404], on human μ opiate receptor, the Ki amounted to 6.3 nM and the “% inhibition (μ) [1 μM]” value is reported as 96.5%. In addition, the Ki on ORL1 receptor was 138 nM. For the same compound, the “% inhibition (ORL1) [1 μM]” value on ORL1 receptor (1 µM) amounted to 52.5%.
In the case of `CCCCC1(N(C)C)CCC2(CC1)CC(=O)N(CCC1COC1)C2` (single isomer, unassigned) [409], on human μ opiate receptor, the Ki was determined as 81 nM and the “% inhibition (μ) [1 μM]” value was 78.5%. The Ki on ORL1 receptor is 1270 nM.
Turning to `CCCCC1(N(C)C)CCC2(CC1)CC(=O)N(CCC1COC1)C2` (single isomer, unassigned) [410], at human μ opiate receptor, the Ki was 5770 nM and the “% inhibition (μ) [1 μM]” value was found to be 20.5%. For the same compound, the “% inhibition (ORL1) [1 μM]” value at ORL1 receptor turned out to be 8%.
On to `CCCC(=O)N1CCC2(CCC(c3cccs3)(N(C)C)CC2)C1` (stereo not shown) [26], for which the figures for the Ki at human μ opiate receptor and on ORL1 receptor were 120 nM and 380 nM, respectively. The “% inhibition (μ) [1 μM]” value at human μ opiate receptor was 77.5%. In addition, on ORL1 receptor (1 µM), the “% inhibition (ORL1) [1 μM]” value amounted to 63%.
The matching figures for `CCCCN1CC2(CCC(c3ccccc3)(N(C)C)CC2)CC1=O` (stereo not shown) [164]: 365 nM, 280 nM, 73% and 39%.
The corresponding values for `CN(C)C1(c2ccccc2)CCC2(CC1)CC(=O)N(CCC1CC1)C2` (stereo not shown) [167] are 1.08 nM, 0.71 nM, 100.67% and 97%.

As usually defined, the Ki is the equilibrium dissociation constant of an inhibitor or competing ligand from its target.
